From ChEMBL document CHEMBL1132560, “N-Substituted 2-(2,6-dinitrophenylamino)propanamides: novel prodrugs that release a primary amine via nitroreduction and intramolecular cyclization” (J Med Chem, 1999) come the findings set out here.

Experiment [1] in a line: Cytotoxicity on AA8 cell growth (reduce cell number by 50%).
Another experiment deals with EMT6. Briefly: Cytotoxicity on EMT6 cells growth (reduce cell number by 50%).
For another experiment, the system named is SK-OV-3. Briefly: Cytotoxicity on SKOV3 cells growth (reduce cell number by 50%).
Experiment [2] in a line: Cytotoxicity on UV4 cells growth (reduce cell number by 50%).

One may read the IC50 as the concentration that gives 50% inhibition. Higher therefore signals weaker potency in that assay. Turning to `Nc1ccc(N(CCCl)CCCl)cc1`, the 50% inhibitory concentration (IC50) in experiment [1] came to 5700 nM; in the experiment with EMT6 it was 1200 nM; in the experiment on SK-OV-3, 2400 nM; in experiment [2] it was 90 nM.
